{"sequences": {"note": "By UniProt entry, the sequences of proteins in these tests, tags left out.", "UniProt O75874, whole entry R132H": "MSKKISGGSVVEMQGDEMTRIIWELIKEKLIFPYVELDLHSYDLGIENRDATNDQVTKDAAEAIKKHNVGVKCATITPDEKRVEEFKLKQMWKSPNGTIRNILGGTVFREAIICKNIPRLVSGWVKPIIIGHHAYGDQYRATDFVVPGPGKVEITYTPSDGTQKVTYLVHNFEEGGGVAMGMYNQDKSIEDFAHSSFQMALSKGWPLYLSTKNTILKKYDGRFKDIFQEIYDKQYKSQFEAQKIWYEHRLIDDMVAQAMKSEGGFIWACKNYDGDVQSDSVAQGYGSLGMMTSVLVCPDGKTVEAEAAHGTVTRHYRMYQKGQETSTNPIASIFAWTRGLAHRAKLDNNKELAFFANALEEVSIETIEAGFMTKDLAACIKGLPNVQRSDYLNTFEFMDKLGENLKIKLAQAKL"}, "source": "PubChem BioAssay AID602179", "about": "(National Center for Advancing Translational Sciences (NCATS), 2012)", "note": "Only a part is listed here, and it is no random draw. Calls of active or inactive are those of the source. The call rests on the fitted dose curve; in most records, active means well fitted inhibition curve with a large enough effect; inconclusive means small, poorly fitted or top-dose-only effect; inactive means no such curve, though single readings can be large or run the other way. On the % scale 0 is the no-effect control and ±100 the full control effect.", "data": [{"target": "Isocitrate dehydrogenase [NADP] cytoplasmic (Homo sapiens) (UniProt O75874)", "assay": "qHTS for Inhibitors of mutant isocitrate dehydrogenase 1 (IDH1): qHTS; further: nearly all actives have a fitted effect of over 65% in size", "settings": "IDH1-R132H enzyme, NADPH consumption, diaphorase/resazurin fluorescence; at 76.6 µM (top of the series)", "excerpt": "Unbiased genomic sequencing for 22 glioma genomes found recurrent mutation of isocitrate dehydrogenase 1 (IDH1) on chromosome 2q33-a gene encoding the cytosolic isoform of IIDH1associated with the tricarboxylic acid cycle (TCA) that catalyzes the oxidative decarboxylation of isocitrate, yielding alpha-ketoglutarate and CO2 via NADP+ to NADPH conversion. Subsequent studies confirmed the recurrent IDH mutations in up to 70% of secondary gliomas and in 10% of AML cases. […] This in effect defines IDH1 as an oncogene, and provides an extraordinary opportunity to discover chemical probes against mutant IDH1 that may translate into much needed new therapies for glioma and AML patients. […] NIH Chemical Genomics Center [NCGC] NIH Molecular Libraries Probe Centers Network [MLPCN] […]\nIDH1-R132H (0.5 ug/mL) was dispensed into black, solid-bottom 1536-well plates at 3 uL/well in 20 mM Tris-HCl (pH 7.5), 150 mM NaCl, 10 mM MgCl2, 4 mM beta-ME, and 0.05% protease-free BSA. […] A pre-read was run on the Viewlux to identify fluorescent compounds (540 nm excitation filter, 598 nm emission filter, bodipy mirror and 2 second exposure). […] The plates were measured on an Envision plate reader for fluorescence signal using a 540 nm excitation filter and 590 nm emission filter with 10 flashes. […] Concentration-response curves were fitted to the signals arising from the resulting fluorescence. […]", "values": [{"smiles": "C[C@H]1OP(=O)(Oc2ccccc2)[C@H](O)[C@H](O)[C@H]1N=[N+]=[N-]", "note": "(stereo partly specified)", "activity change, negative = inhibition": "inactive: -11.2%"}]}]}
